Target: T1, OCTN2 (Homo sapiens, UniProt O76082)
T1 sequence (O76082 1-557): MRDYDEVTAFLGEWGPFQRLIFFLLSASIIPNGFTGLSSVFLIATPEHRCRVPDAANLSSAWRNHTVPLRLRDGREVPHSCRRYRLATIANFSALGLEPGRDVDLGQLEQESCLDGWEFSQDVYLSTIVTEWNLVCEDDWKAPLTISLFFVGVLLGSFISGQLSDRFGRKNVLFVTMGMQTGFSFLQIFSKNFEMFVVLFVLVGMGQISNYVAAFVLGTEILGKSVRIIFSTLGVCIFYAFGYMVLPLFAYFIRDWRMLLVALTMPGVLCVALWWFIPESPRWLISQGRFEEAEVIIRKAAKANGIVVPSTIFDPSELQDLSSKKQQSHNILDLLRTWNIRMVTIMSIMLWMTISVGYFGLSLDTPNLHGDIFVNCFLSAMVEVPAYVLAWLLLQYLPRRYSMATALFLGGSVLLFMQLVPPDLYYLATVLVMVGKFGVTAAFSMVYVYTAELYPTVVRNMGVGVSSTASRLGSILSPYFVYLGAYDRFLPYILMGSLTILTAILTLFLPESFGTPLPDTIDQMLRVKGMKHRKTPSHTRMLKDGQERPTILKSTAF
Test: Inhibition of L-carnitine uptake in stably transfected hOCTN2-MDCK cells
Assay type: cell-based
Details: Observed Ki (±SEM), test set, 10 min, competitive inhibition model

Compound: Cc1nc2n(c(=O)c1CCN1CCC(c3noc4cc(F)ccc34)CC1)CCCC2 [Risperidone]
- Ki: 144 ± 17 µM

From article PMC2997942 (Molecular pharmaceutics, 2010)
